Literature values as cited in PMC3265362 (Biochemical Journal, 2008).

Biological target: T1, human QR2 (Homo sapiens, UniProt P16083)
T1 sequence (P16083 1-231): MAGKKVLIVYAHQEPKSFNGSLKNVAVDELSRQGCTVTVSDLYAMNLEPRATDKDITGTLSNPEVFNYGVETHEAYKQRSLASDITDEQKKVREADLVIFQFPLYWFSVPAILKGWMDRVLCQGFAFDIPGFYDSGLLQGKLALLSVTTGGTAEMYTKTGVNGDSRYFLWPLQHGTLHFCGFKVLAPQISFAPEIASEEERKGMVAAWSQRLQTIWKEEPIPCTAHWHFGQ
Conditions: read-out: IC50 value, Mammalian cells; cytosolic fraction of mammalian cell lines overexpressing human QR2, dihydrobenzylnicotinamide as co-substrate; ref [37]; cited from earlier work

COC(=O)Nc1ccc2[nH]cc(CCNC(C)=O)c2c1 [MCA-NAT, 5-methoxycarbonylamino-N-acetyltryptamine]
IC50: 295 ± 19 µM
